Reference: ChEMBL document CHEMBL3580663, “C7β-methyl analogues of the orvinols: the discovery of kappa opioid antagonists with nociceptin/orphanin FQ peptide (NOP) receptor partial agonism and low, or zero, efficacy at mu opioid receptors” (2015)

Protein sequences, listed by entry. Tags and fused reporters are not part of them.
UniProt P33535, whole entry, looked up: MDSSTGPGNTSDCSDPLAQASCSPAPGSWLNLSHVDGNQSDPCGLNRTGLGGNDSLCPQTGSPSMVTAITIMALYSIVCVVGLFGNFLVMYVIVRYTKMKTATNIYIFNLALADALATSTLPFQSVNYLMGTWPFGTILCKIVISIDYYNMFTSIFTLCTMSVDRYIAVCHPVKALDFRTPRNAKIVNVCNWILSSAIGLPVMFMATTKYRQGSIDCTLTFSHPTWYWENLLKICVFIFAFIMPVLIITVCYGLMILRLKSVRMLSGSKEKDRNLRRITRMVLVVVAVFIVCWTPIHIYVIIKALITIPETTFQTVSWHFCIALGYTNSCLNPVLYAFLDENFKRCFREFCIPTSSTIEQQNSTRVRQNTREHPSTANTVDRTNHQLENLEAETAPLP
UniProt P33533, whole entry, looked up: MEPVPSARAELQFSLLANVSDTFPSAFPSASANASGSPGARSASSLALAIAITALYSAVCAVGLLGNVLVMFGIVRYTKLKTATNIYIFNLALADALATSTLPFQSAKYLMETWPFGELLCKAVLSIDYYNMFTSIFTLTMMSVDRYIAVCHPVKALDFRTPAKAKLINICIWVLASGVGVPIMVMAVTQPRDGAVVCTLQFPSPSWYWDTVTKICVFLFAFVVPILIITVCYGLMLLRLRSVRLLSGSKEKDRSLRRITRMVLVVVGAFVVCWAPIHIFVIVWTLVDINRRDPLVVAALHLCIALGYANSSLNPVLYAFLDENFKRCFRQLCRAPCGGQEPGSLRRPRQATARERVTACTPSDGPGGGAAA

Columns and labels:
[1] = biological target: Mu-type opioid receptor (Rattus norvegicus) (UniProt P33535); assay: Agonist activity at rat mu opioid receptor expressed in rat C6 cell membranes assessed as stimulation of [35S]GTPgammaS binding at 10 uM relative to DAMGO
[2] = biological target: Delta-type opioid receptor (Rattus norvegicus) (UniProt P33533); assay: Agonist activity at rat delta opioid receptor expressed in rat C6 cell membranes assessed as stimulation of [35S]GTPgammaS binding at 10 uM relative to DPDPE

SMILES: CO[C@@]12CC[C@@]3(C[C@@H]1[C@](C)(O)C(C)(C)C)[C@H]1Cc4ccc(O)c5c4[C@@]3(CCN1CC1CC1)[C@H]2O5
- %max [1]: 20%
- %max [2]: 7%
